Measurements reported in ChEMBL document CHEMBL1121747, “Side-chain effects on phenothiazine cation radical reactions” (J Med Chem, 1981).

Assay: Dissociation constant was reported
Type: physicochemical

CN1CCN(CCCN2c3ccccc3Sc3ccc(C(F)(F)F)cc32)CC1 [TRIFLUOPERAZINE]
pKa: 3.9
